Measurements: patent US6376243B1, “DNA encoding a human serotonin receptor (5-HT4B) and uses thereof” (Synaptic Pharmaceutical Corporation, priority 1992, dated 2002)

Amino acid sequences for entries named in this document (tags omitted). Residues count along the entry.
UniProt P34969, 1-445 isoform P34969-2: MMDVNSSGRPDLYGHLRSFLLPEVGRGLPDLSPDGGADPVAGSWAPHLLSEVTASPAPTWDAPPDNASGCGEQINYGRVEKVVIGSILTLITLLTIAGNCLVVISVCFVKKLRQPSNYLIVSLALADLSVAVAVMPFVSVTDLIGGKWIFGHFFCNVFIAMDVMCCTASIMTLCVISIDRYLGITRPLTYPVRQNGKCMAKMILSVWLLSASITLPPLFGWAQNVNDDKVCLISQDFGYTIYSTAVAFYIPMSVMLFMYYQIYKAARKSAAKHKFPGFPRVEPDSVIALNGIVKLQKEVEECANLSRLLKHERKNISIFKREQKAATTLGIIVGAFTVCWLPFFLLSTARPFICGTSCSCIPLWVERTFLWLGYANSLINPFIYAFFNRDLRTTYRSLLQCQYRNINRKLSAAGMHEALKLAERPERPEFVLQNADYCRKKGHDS

What was measured:
[1] = molecular target: clone hp78a (human 5-HT4B receptor) (Homo sapiens, UniProt P34969); test: Competition of [3H]5-HT binding to membranes of cells transiently expressing clone hp78a
[2] = molecular target: human 5-HT4B receptor (Homo sapiens, UniProt P34969); test: cAMP formation in intact Cos-7 cells transiently expressing the receptor; conditions: for FOLD cAMP STIMULATION relative to basal levels: drug 1 μM, intact Cos-7 cells

| SMILES | Hill coefficient nH [1] | Ki in binding assays higher affinity than EC50 in functional assays [2] | agonist activity on cAMP [2] | FOLD cAMP STIMULATION relative to basal levels [2] [fold] | FOLD cAMP STIMULATION relative to basal levels ([2]; listed as 8-OH-DPAT) |
| --- | --- | --- | --- | --- | --- |
| NCCc1c[nH]c2ccc(C(N)=O)cc12 [5-CT, 5-Carboxamidotryptamine] | 0.95 ± 0.06 | approximately 100 fold | potent agonists |  |  |
| CCCN(CCC)C1CCc2cccc(O)c2C1 (centres unmarked) [DPAT] |  |  |  | 1.7 ± 0.4 | about 2 fold |
